Test results taken from PMC5034805 (Journal of Clinical Pharmacology, 2015).

Test: Safety evaluation in the ketoconazole interaction study
Assay type: in vivo, human (patients with advanced cancer)
Details: ketoconazole 400 mg daily days 4-8 with romidepsin 8 mg/m^2

CC(=O)N1CCN(c2ccc(OCC3COC(Cn4ccnc4)(c4ccc(Cl)cc4Cl)O3)cc2)CC1 (stereo not shown) [ketoconazole]
Effect on the QT interval: No effect on the QT interval
